Values of other authors in US20040171543A1, “Matrix metalloproteinase inhibitors and methods for identification of lead compounds” (priority 2002, published 2004).

By UniProt entry, the sequences of proteins in these tests, tags left out. Residues count along the entry.
UniProt P14780, 94-707: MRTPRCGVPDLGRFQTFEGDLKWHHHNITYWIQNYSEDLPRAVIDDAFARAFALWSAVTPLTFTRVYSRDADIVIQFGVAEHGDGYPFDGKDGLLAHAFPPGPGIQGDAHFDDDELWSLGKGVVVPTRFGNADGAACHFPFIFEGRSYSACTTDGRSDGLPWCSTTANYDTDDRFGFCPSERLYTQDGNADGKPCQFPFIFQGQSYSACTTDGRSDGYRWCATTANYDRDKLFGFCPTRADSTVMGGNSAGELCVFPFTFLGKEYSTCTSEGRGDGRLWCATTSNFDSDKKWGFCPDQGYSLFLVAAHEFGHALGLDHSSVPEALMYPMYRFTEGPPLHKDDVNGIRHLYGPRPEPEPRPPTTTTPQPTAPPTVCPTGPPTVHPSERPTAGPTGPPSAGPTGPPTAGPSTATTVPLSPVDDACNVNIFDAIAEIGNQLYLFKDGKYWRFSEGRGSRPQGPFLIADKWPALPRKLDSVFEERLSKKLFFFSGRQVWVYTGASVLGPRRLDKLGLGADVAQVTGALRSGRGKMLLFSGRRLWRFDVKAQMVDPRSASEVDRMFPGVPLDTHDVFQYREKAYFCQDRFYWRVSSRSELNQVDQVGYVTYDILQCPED
UniProt P78536, 215-824: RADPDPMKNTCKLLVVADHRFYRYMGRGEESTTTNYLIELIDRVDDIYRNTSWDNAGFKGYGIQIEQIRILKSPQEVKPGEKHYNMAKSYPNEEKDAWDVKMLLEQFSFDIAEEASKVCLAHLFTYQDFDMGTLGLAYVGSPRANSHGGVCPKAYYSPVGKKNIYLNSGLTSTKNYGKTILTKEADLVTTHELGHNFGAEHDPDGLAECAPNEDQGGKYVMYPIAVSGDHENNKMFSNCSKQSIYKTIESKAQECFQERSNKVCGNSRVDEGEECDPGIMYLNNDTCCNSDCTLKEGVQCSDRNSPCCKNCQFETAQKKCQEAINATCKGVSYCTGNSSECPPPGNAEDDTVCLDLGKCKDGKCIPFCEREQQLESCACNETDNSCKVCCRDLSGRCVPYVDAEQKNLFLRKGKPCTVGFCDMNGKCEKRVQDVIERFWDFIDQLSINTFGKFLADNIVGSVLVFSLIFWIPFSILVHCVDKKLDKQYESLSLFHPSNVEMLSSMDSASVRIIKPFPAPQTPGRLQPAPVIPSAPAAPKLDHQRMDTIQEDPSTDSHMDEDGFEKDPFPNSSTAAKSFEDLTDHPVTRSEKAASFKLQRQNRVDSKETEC

Experiments:
Conditions in all cases: MMP-13 selective compound, Chen et al.; cited from earlier work
MMP-1 = molecular target: T1, MMP-1 (Homo sapiens, UniProt P03956)
T1 sequence (P03956 100-469): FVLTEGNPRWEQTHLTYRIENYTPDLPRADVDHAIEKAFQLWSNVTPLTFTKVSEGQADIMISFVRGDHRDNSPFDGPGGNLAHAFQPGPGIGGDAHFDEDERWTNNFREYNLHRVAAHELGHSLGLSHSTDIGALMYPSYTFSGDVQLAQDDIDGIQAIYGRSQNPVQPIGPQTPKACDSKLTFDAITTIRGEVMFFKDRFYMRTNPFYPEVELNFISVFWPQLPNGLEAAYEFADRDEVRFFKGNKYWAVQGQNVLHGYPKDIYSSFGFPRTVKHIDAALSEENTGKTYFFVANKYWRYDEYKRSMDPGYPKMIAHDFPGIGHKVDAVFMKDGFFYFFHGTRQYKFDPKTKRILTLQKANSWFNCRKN

MMP-9 = MMP-9 (Homo sapiens, UniProt P14780)
TACE = TACE (Homo sapiens, UniProt P78536)

Cc1cc(C)c(N(Cc2ccccc2)S(=O)(=O)c2ccc(OCCNC(=O)c3cc4ccccc4o3)cc2)c(C(=O)NO)c1 [WAY-170523]
Selectivity against MMP-1 (MMP-1): > 5800 fold | Selectivity against MMP-9 (MMP-9): 56 fold | Selectivity against TACE (TACE): 500 fold
